# The whole screen tested about 350,000 compounds, of which about 450 (0.13%) were called active. This is one part of a sample in which actives are shown more often than they occur. Values without a mark were called inactive.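 The calls were made as follows: active = replicate mean at a twofold rise or more (about +100% in these data); inactive = the rest.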
# Test: modulators of yeast start codon fidelity, primary screen, whole organism, S. cerevisiae, single point, plate reader (AID 602363)
# Details: S. cerevisiae UUG-firefly luciferase reporter, luminescence/redox ratio; at 18.7 µM; hits give high values
row,Compound,activity score
1,COc1ccc(NC(=O)Nc2cccc3c2O[C@@H](CN(C)Cc2ccncc2)[C@H](C)CN([C@H](C)CO)C3=O)cc1,-5.85%
2,CC(C)C#Cc1ccc2c(c1)O[C@@H](CN(C)C(=O)Nc1ccccc1)[C@H](C)CN([C@H](C)CO)S2(=O)=O,-2.56%
3,CCC(=O)N(C)C[C@@H]1Oc2ncc(C#CCC3CCCC3)cc2C(=O)N([C@@H](C)CO)C[C@H]1C,5.33%
4,O=C(c1ccncc1)N1C[C@H]2[C@@H](c3ccccc31)[C@H](CO)N2C(=O)c1ccccn1,-20.1%
5,O=C(N[C@H]1CC[C@@H](CCNS(=O)(=O)c2ccc(Cl)cc2)O[C@H]1CO)c1cccc(F)c1,12.6%
6,CC(C)CC#Cc1cnc2c(c1)C(=O)N([C@H](C)CO)C[C@H](C)[C@@H](CN(C)Cc1ccccc1)O2,16.5%
7,C[C@H](CO)N1C[C@H](C)[C@@H](CN(C)C(=O)C2CCCCC2)Oc2cc(-c3ccccc3)ccc2S1(=O)=O,9.53%
8,C[C@H]1CN([C@@H](C)CO)C(=O)c2cc(NC(=O)Cn3cnnn3)ccc2O[C@@H]1CN(C)S(=O)(=O)c1cccs1,-10.2%
9,O=C(O)C[C@@H]1C[C@@H]2c3cc(NC(=O)NC4CCCC4)ccc3O[C@@H]2[C@H](CO)O1,-9.94%
10,COc1cccc(S(=O)(=O)Nc2ccc3c(c2)[C@H]2C[C@H](CC(=O)O)O[C@H](CO)[C@H]2O3)c1,-0.528%
11,Cc1noc(C)c1NC(=O)Nc1ccc2c(c1)C(=O)N([C@H](C)CO)C[C@H](C)[C@@H](CN(C)Cc1ccc3c(c1)OCO3)OCCCC[C@@H](C)O2,-5.08%
12,C[C@@H]1CN([C@@H](C)CO)C(=O)c2cc(C#CC(C)(C)O)cnc2O[C@@H]1CN(C)C(=O)C1CCOCC1,-1.48%
13,CC(=O)N1CC(=O)N(CC(=O)Nc2ccc(Br)cc2)C1=S,120% (active)
14,Cc1cccc(NC(=O)CN2C(=O)CNC2=O)c1,-17.5%
15,CCc1ccc(NC(=O)CN2C(=O)CSC2=O)cc1,-4.72%
16,CCCNC(=O)N(C)C[C@H]1Oc2ncc(C#CC(C)C)cc2C(=O)N([C@@H](C)CO)C[C@@H]1C,11.9%
17,CO[C@H]1CN(C)C(=O)c2cc(NC(=O)c3cc(C)on3)ccc2OC[C@H](C)N(C(C)=O)C[C@H]1C,7.59%
18,O=C(Cc1ccccn1)N[C@H]1CC[C@H](CCNS(=O)(=O)c2cccc(F)c2)O[C@@H]1CO,-14.5%
19,CC(=O)N1C[C@@H]2[C@H](c3ccccc31)[C@H](CO)N2C(=O)Nc1ccc(F)cc1,27%
20,O=C(C[C@@H]1C=C[C@H](NC(=O)CCN2CCCCC2)[C@H](CO)O1)NCc1ccc(Cl)c(Cl)c1,-10.1%
21,O=C(NNC(=O)c1ccco1)Nc1ccccc1,-11.9%

row,Compound,activity score
1,O=C(Nc1ccc(Oc2ccccc2)cc1)c1ccco1,570% (active)
2,Cc1ccc(NC(=O)c2ccco2)cc1,13.9%
3,CC(C)NC(=O)N1CCCCN2[C@H](CO)[C@H](c3ccc(C#C[C@H](C)O)cc3)[C@H]2C1,4.66%
4,Cc1noc(C)c1S(=O)(=O)N(C)C[C@@H]1OCCCC[C@H](C)Oc2ccc(NC(=O)Nc3ccc4c(c3)OCO4)cc2C(=O)N([C@H](C)CO)C[C@@H]1C,-17.6%
5,O=C(Nc1ccc(Cl)cc1)N1C[C@@H]2[C@H](c3ccccc31)[C@@H](CO)N2C(=O)c1cccnc1,-17%
6,CC(C)NC(=O)Nc1ccc2c(c1)C(=O)N([C@@H](C)CO)C[C@H](C)[C@@H](CN(C)C(=O)Nc1ccc(F)cc1)OCCCC[C@H](C)O2,-6.2%
7,C[C@H](CO)N1C[C@H](C)[C@H](CN(C)Cc2ccc3c(c2)OCO3)Oc2c(cccc2N(C)C)C1=O,-9.31%
8,COc1ccc(S(=O)(=O)N(C)C[C@H]2OCCCC[C@@H](C)Oc3ccc(NC(=O)CCC(F)(F)F)cc3C(=O)N([C@@H](C)CO)C[C@H]2C)cc1,1.93%
9,C=CCOC(=O)[C@H]1[C@@H]2C(=O)O[C@@H](c3ccccc3)[C@@H](c3ccccc3)N2[C@@H](c2ccc(OCCOC(=O)[C@H]3C[C@H]4C(=O)NCC(=O)N4[C@H]3c3ccc(O)cc3)cc2)[C@]12C(=O)Nc1ccccc12,-7.32%
10,COc1ccccc1-c1cnc2c(c1)C(=O)N([C@H](C)CO)C[C@@H](C)[C@@H](CN(C)CC1CCCC1)O2,-0.682%
11,C[C@H](CO)N1C[C@H](C)[C@H](CN(C)C(=O)c2ccccn2)Oc2ncc(-c3ccccc3F)cc2C1=O,9.71%
12,Cc1noc(C)c1NC(=O)N(C)C[C@@H]1Oc2ccc(NS(=O)(=O)c3ccc(Cl)cc3)cc2C(=O)N([C@@H](C)CO)C[C@H]1C,9.56%
13,C[C@H](CO)N1C[C@H](C)[C@@H](CN(C)Cc2ccc(Cl)c(Cl)c2)Oc2c(NC(=O)C3CCCCC3)cccc2C1=O,0.419%
14,CO[C@H]1CN(C)C(=O)c2cc(NS(C)(=O)=O)ccc2OC[C@H](C)N(C(=O)C2CCCC2)C[C@H]1C,-1.38%
15,C[C@@H]1CN([C@H](C)CO)C(=O)Cc2cc(NS(=O)(=O)c3ccc(Cl)cc3)ccc2O[C@@H]1CN(C)S(=O)(=O)c1ccc(Cl)cc1,-17.9%
16,Cc1ccc(S(=O)(=O)N(C)C[C@@H]2Oc3ccc(NS(=O)(=O)c4c(C)noc4C)cc3CC(=O)N([C@H](C)CO)C[C@H]2C)cc1,12.2%
17,CCCNC(=O)C[C@H]1CC[C@@H]2[C@H](COc3ccc(NC(=O)c4ccc(OC)cc4)cc3C(=O)N2C)O1,4.65%
18,C[C@@H](NC(=O)C[C@H]1C[C@H]2c3cc(NC(=O)Nc4ccccc4F)ccc3O[C@H]2[C@@H](CO)O1)c1ccccc1,-2.05%
19,CCCNC(=O)N1C[C@@H](O)COC[C@H]2O[C@@H](CC(=O)NCCCN3CCOCC3)CC[C@@H]21,-4.24%
20,C[C@@H]1CN([C@@H](C)CO)C(=O)c2cc(NS(=O)(=O)c3cccs3)ccc2O[C@@H]1CN(C)S(=O)(=O)c1ccc(F)cc1,2.8%
21,C[C@@H]1CCCCO[C@@H](CN(C)S(C)(=O)=O)[C@H](C)CN([C@@H](C)CO)C(=O)c2cc(NC(=O)Nc3ccc4c(c3)OCO4)ccc2O1,12.2%

row,Compound,activity score
1,C[C@H]1CN([C@@H](C)CO)C(=O)c2cc(-c3ccccc3F)cnc2O[C@@H]1CN(C)C(=O)C1CCCCC1,12.9%
2,CO[C@@H]1CN(C)C(=O)c2cc(NC(=O)NC3CCCCC3)ccc2OC[C@H](C)N(CC2CC2)C[C@H]1C,-4.52%
3,CC(=O)N(C)C[C@H]1Oc2cc(C#CC3CC3)ccc2S(=O)(=O)N([C@H](C)CO)C[C@@H]1C,22%
4,COc1ccccc1C#Cc1ccc([C@H]2[C@H](CO)N3CCCCN(C(=O)C4CCC4)C[C@@H]23)cc1,29.8%
5,Cc1ccccc1-c1cnc2c(c1)C(=O)N([C@@H](C)CO)C[C@@H](C)[C@@H](CN(C)CC1CCOCC1)O2,-10.7%
6,C[C@H]1CN([C@@H](C)CO)S(=O)(=O)c2ccc(C#CCN(C)C)cc2O[C@H]1CN(C)C(=O)CN(C)C,28.3%
7,C[C@@H]1CN([C@@H](C)CO)S(=O)(=O)c2ccc(C#Cc3ccc(F)cc3)cc2O[C@H]1CN(C)C(=O)NC1CCCC1,273% (active)
8,C/C=C/c1ccc2c(c1)O[C@@H](CN(C)C(=O)NC1CCCC1)[C@@H](C)CN([C@H](C)CO)S2(=O)=O,12.5%
9,C[C@@H]1CN([C@@H](C)CO)S(=O)(=O)c2ccc(C#C[C@@H](C)O)cc2O[C@@H]1CN(C)C(=O)CN(C)C,-1.41%
10,CC(C)C#Cc1ccc2c(c1)O[C@@H](CN(C)C(=O)CN(C)C)[C@@H](C)CN([C@H](C)CO)S2(=O)=O,61.3% (active)
11,C[C@@H]1CN([C@@H](C)CO)S(=O)(=O)c2ccc(C#Cc3ccc(F)cc3)cc2O[C@@H]1CN(C)CC1CC1,11.3%
12,Cc1ccc(S(=O)(=O)N(C)C[C@@H]2Oc3ccc(NC(=O)NC4CCCCC4)cc3C(=O)N([C@@H](C)CO)C[C@H]2C)cc1,-6.25%
13,C[C@@H]1CN([C@@H](C)CO)S(=O)(=O)c2ccc(C#Cc3ccccc3)cc2O[C@@H]1CN(C)C(=O)C1CC1,-28.6%
14,COCC#Cc1cnc2c(c1)C(=O)N([C@@H](C)CO)C[C@@H](C)[C@@H](CN(C)C(=O)c1cccnc1)O2,-8.09%
15,CN1c2ccc(Br)cc2[C@@H]2[C@@H](CCN2C(=O)C2CCCCC2)[C@H]1CO,25.4%
16,C[C@H](CO)N1C[C@H](C)[C@H](CN(C)C(=O)Nc2cccc3ccccc23)Oc2ncc(C#Cc3ccccc3)cc2C1=O,-10%
17,Cc1ccccc1S(=O)(=O)N1[C@H](C#N)[C@H](c2ccccc2)[C@H]1CO,-7.59%
18,C[C@H](CO)N1C[C@H](C)[C@H](CN(C)S(=O)(=O)c2cccs2)Oc2ccc(NS(=O)(=O)c3ccc(Cl)cc3)cc2CC1=O,3.99%
19,COc1ccc(CN(C)C[C@H]2OCCCC[C@H](C)Oc3ccc(NC(=O)Nc4ccc5c(c4)OCO5)cc3C(=O)N([C@H](C)CO)C[C@@H]2C)cc1,0.433%
20,C[C@H](CO)N1C[C@H](C)[C@H](CN(C)S(=O)(=O)c2cccs2)Oc2c(NC(=O)Nc3ccc4c(c3)OCO4)cccc2C1=O,6.62%

# Reference: PubChem BioAssay AID602363 (Broad Institute, 2012)
